Experimental findings from patent US8017321B2, “Gefitinib sensitivity-related gene expression and products and methods related thereto” (The Regents of the University of Colorado, A Body Corporate, priority 2005, dated 2011) are described below.

In this test the test system is A549 NSCLC xenografts. The test is described as follows: Athymic nude mice bearing human NSCLC xenografts (FIG. 5). The test is classed as in vivo. The method, then: FIG. 5 is a line graph showing the effects of gefitinib on A549 NSCLC xenografts.
Based on the in vitro experiments, athymic nude mice bearing human NSCLC xenografts were treated with EGFR inhibitors ZD1839 or C225.
(In general: A xenograft is tissue or cells of one species grown in another, often human tumour cells in immunodeficient mice.)

Consider “C225: EGFR inhibitor used to treat nude mice bearing human NSCLC xenografts”, for which the “tumor growth of NSCLC xenografts after treatment” value was “Growth delay was evident”.
